# From paper PMC11360180, “Enhancement of Antimicrobial Function by L/D-Lysine Substitution on a Novel Broad-Spectrum Antimicrobial Peptide, Phylloseptin-TO2: A Structure-Related Activity Research Study” (Pharmaceutics, 2024)
# Assays:
# Conditions in all cases: 5 × 10^5 CFU/mL, 24 h, absorbance 550 nm
# MRSA (NCTC 12493) = type: cell-based, methicillin-resistant Staphylococcus aureus
# Description: (§1) Seven microorganism strains were used to preliminarily evaluate the antimicrobial activity of PSTO2 and its analogues, including Staphylococcus aureus (S. aureus) (ATCC® 6538), methicillin-resistant Staphylococcus aureus (MRSA) (NCTC® 12493), Enterococcus faecalis (E. faecalis) (NCTC® 12697), E. coli (ATCC® 8739), Klebsiella pneumonia (K. pneumonia) (ATCC® 43816), Pseudomonas aeruginosa (P. aeruginosa) (ATCC® CRM 9027), Acinetobacter baumanni (A. baumanni) (BAA® 747), and Candida albicans (C. albicans) (ATCC® 10231). In this study, the strains were cultured in Mueller–Hinton broth (MHB), nutrient broth (NB), and yeast–peptone–dextrose broth (YPD-B) correspondingly at 37 °C, with shaking at 120 rpm. Each peptide was dissolved from 128 μM to 1 μM and mixed with the bacterium at 5 × 10^5 CFU/mL. […]
# (§2) After being incubated for 24 h, a Synergy HT plate reader (Bio-Tek, Shoreline, WA, USA) was used to detect the absorbance of each well in the 96-well plate at λ = 550 nm. The concentration at which no visible turbidity could be recorded was the MIC value. […] The plate was checked the next day for colony formation, and the lowest concentration at which no colony growing was recorded as an MBC value.
# [1] = test system: P. aeruginosa (ATCC 9027); type: cell-based, Pseudomonas aeruginosa
# Description: as §1, §2
# E. coli (ATCC 8739) = type: cell-based, Escherichia coli
# Description: as §1, §2
# S. aureus (ATCC 6538) = type: cell-based, Staphylococcus aureus
# Description: as §1, §2
structure (smiles),measurement,setting,value
"CC[C@H](C)[C@H](NC(=O)CN)C(=O)NCC(=O)N[C@@H](C)C(=O)N[C@H](C(=O)N[C@@H](CC(C)C)C(=O)N[C@@H](CCCCN)C(=O)N[C@H](C(=O)N[C@@H](CC(C)C)C(=O)N[C@H](C(=O)N[C@H](C(=O)NCC(=O)N[C@@H](CC(C)C)C(=O)N1CCC[C@H]1C(=O)N[C@@H](C)C(=O)N[C@@H](CC(C)C)C(=O)N[C@H](C(=O)N[C@@H](CO)C(=O)N[C@@H](Cc1c[nH]c2ccccc12)C(=O)N[C@H](C(=O)N[C@@H](CCCCN)C(=O)N[C@@H](CCCNC(=N)N)C(=O)N[C@@H](CCCCN)C(=O)N[C@@H](CCCNC(=N)N)C(=O)N[C@@H](CCC(N)=O)C(=O)N[C@@H](CCC(N)=O)C(N)=O)[C@@H](C)CC)[C@@H](C)CC)[C@@H](C)O)[C@@H](C)O)C(C)C)C(C)C [Mellitin, melittin, reference compound]",MIC,MRSA (NCTC 12493),2 µM
same,MIC,[1],16 µM
same,MIC,E. coli (ATCC 8739),4 µM
same,MIC,S. aureus (ATCC 6538),5.7 µg/mL and 2 µM

# Values joined by “and” are separate entries in the source; they are usually repeats but may differ in a detail not shown here. Identical values can stand only once.
